According to PMC3686528 (MedChemComm, 2013):

Conditions: human liver microsomes, 1 h treatment

CC(C)N(CCCNC(=O)Nc1ccc(C(C)(C)C)cc1)CC1=C[C@@H](n2cnc3c(N)ncnc32)[C@H](O)[C@@H]1O [compound 7]
fraction remaining after microsome treatment: ~ half
